The values below come from patent US20260382605A1, “REVERSIBLE MACROCYCLIC KINASE INHIBITORS” (published 2026).

By UniProt entry, the sequences of proteins in these tests, tags left out. Residues count along the entry.
UniProt P07949, 29-1114 limits assumed: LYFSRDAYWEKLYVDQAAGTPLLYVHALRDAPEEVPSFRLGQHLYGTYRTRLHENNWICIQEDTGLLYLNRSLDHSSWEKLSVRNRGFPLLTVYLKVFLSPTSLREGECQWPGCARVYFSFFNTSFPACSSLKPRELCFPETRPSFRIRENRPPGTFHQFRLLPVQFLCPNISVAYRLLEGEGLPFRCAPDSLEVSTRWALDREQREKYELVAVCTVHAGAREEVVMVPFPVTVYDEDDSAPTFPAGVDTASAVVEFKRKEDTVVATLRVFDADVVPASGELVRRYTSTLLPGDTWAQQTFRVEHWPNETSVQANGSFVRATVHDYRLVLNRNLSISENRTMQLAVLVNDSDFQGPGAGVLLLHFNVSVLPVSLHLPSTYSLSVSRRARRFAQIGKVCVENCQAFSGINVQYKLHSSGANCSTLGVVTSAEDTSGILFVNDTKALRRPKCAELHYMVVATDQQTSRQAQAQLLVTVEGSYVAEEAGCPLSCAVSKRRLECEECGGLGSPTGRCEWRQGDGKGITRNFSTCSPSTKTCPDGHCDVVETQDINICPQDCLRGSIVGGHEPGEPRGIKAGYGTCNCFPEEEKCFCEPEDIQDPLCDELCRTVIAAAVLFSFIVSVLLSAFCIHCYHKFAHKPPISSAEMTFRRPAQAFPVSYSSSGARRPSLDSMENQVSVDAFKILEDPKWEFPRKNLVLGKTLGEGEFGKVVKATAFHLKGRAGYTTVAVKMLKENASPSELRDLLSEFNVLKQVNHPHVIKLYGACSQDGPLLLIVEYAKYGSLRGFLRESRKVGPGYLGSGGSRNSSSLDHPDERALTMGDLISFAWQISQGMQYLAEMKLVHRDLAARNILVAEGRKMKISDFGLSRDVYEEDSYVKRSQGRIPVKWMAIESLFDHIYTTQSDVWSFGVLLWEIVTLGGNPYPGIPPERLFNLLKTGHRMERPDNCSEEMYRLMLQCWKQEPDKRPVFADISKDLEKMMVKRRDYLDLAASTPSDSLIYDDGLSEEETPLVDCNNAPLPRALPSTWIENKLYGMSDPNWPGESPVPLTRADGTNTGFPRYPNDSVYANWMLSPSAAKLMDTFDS
UniProt P06239, whole entry: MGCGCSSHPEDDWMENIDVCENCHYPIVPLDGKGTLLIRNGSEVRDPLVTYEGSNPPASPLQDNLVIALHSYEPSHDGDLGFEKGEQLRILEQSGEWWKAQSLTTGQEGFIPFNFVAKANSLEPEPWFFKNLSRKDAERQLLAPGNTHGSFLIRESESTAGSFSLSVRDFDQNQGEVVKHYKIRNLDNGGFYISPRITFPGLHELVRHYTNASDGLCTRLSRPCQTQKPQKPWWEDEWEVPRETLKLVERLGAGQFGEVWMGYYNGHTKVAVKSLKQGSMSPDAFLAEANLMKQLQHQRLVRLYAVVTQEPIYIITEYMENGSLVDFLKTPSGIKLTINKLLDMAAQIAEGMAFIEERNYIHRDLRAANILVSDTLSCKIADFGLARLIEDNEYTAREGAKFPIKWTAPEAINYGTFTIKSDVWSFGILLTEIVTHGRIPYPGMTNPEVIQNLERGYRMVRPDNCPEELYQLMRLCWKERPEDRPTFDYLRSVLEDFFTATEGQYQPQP
UniProt P07948, whole entry: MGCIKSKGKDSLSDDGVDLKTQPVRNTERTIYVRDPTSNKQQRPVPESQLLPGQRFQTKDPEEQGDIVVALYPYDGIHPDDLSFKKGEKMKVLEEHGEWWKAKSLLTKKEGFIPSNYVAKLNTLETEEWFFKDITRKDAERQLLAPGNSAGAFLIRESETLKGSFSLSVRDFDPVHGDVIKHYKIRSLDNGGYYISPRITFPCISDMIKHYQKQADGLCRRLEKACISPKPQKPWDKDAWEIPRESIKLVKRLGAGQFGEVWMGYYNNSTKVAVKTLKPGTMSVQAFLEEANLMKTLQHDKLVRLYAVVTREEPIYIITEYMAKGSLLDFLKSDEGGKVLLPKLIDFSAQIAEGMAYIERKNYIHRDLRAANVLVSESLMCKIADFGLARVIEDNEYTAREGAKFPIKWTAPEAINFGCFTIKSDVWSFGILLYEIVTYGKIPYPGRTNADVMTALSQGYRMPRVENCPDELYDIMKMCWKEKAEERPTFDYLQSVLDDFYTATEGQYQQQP

Experiment [1] concerns the target RET (Homo sapiens, UniProt P07949). Briefly: Biochemical kinase assay RET (33P-ATP filter binding). The conditions noted are these: read-out: IC50 value; RET 2 nM, 10 μM ATP, 20 min pre-incubation, 120 min reaction. The protocol:
Biochemical Kinase Assay RET
The kinase activity of RET was assayed at Reaction Biology Corporation. The substrate in the RET reaction, TRK-C derived peptide (Genscript, Cat. #U4552FL280_1), was prepared in fresh reaction buffer (20 mM HEPES (pH 7.5), 10 mM MgCl2, 1 mM EGTA, 0.01% Brij35, 0.02 mg/mL BSA, 0.1 mM Na3VO4, 2 mM DTT, 1% DMSO). RET (Invitrogen, Cat. #PV3819) was delivered into the substrate solution and mixed gently. The final concentrations of RET and the substrate in the reaction were 2 nM and 20 μM respectively. Compounds were tested in 10-point concentration/response mode with 3-fold serial dilution steps starting at 10 μM.
Compounds in 100% DMSO were delivered into the kinase reaction mixture by acoustic liquid delivery technology (ECHO550; nanoliter range) and incubated for 20 min at room temperature. 10 μM [^33P]-ATP (ATP: Sigma, Cat #: A7699; [^33P]-ATP: Hartmann Analytic, Cat #: SCF-301-12) was delivered into the reaction mixture to initiate the reaction. The mixture was incubated for 120 min at room temperature. Radioactivity was detected utilizing a proprietary filter-binding method. Kinase activity data were expressed as the percent remaining activity in test samples compared to vehicle (DMSO) reactions. IC50 values and curve fits were obtained using Prism4Software (GraphPad).

In experiment [2] the target is LCK (Homo sapiens, UniProt P06239). Briefly: Biochemical kinase assay LCK (IMAP). The conditions noted are these: read-out: IC50 value; LCK 2.9 nM, 4 μM ATP, 1 h pre-incubation, 2 h reaction. As for the experimental part: Biochemical Kinase Assay LCK
To determine the inhibitory activity of compounds on LCK enzyme activity, the IMAP® assay (Molecular Devices) was used. Compounds were serially diluted in dimethylsulfoxide (DMSO) and subsequently in 4% DMSO in IMAP reaction buffer, which consists of 10 mM Tris-HCl, pH 15 7.5, 10 mM MgCl2, 0.01% Tween-20, 0.1% NaN3 and 1 mM freshly prepared dithiotreitol (DTT). Compound solution was mixed with an equal volume of full-length Lck enzyme (Carna Biosciences, cat. no. 08-170) in IMAP reaction buffer. After pre-incubation of 1 hour in the dark at room temperature, fluorescein-labeled MBP-derived substrate peptide (Molecular Devices, cat. no. RP 7123) was added, followed by ATP to start the reaction. Final enzyme concentration was 2.9 nM final substrate concentration 100 nM, and final ATP concentration was 4 μM. The reaction was allowed to proceed for 2 hours at room temperature in the dark. The reaction was stopped by quenching with IMAP progressive binding solution according to the protocol of the manufacturer (Molecular Devices). Fluorescein polarization was measured on an Envision multimode reader (Perkin Elmer, Waltham, MA, U.S.A.). IC50 were calculated using XLfit™5 software (ID Business Solutions, Ltd., Surrey, U.K.).

The target of experiment [3] is Lyn (Homo sapiens, UniProt P07948). Briefly: Binding kinetics assay (surface plasmon resonance) LYN. The conditions noted are these: SPR, 22 °C. The protocol: Binding Kinetics Assay wt-BTK, BTK C481S, LCK, FGFR1, FLT3, PDGFR-β, FMS, LYN, MEK1, AUR-B. ITK. VEGFR, EGFR, FGFR3, AXL, c-MET, SRC, YES, ABL, RET and IGFR1 (Surface Plasmon Resonance)
Streptavidin-coated chips (Cat. No. BR100531), disposables and maintenance kits for Biacore were purchased from Cytiva (Eindhoven, The Netherlands). […] The kinetic constants of the compounds were determined with single cycle kinetics with five consecutive injections with an increasing compound concentration with ranges of 3.16-316 nM. […] The SPR sensorgrams were analyzed with Biacore Evaluation Software by using a method of double referencing. […] Target residence time (τ) for the 1:1 binding model was calculated from the dissociation constant kd with the formula T=1/kd. Target residence for an induced fit model was calculated as described (Tummino and Copeland, 2008).
A general note: SPR reads the build-up and loss of mass on a sensor chip optically.

Where only a bound is given, the exact number is not on record here.

For `CC(C)(C)c1cc(NC(=O)Cc2ccc(-c3nc4n5c(cnc(N)c35)/C=C/CCOCCC(=O)N[C@@H]3CCC[C@@H]4C3)cc2)no1`, in experiment [1], the IC50 (usually the concentration at which inhibition is half-maximal) is < 5 nM.
As to `Nc1ncc2c3c1c(-c1ccc(C(=O)Nc4cc(C(F)(F)F)ccn4)cc1)nn3[C@@H]1CCC[C@H](C1)NC(=O)[C@H]1CN(C/C=C/2)CCN1`, the IC50 in experiment [2] was < 5 nM. Moreover, in experiment [3], the equilibrium dissociation constant (Kd) (in general, the equilibrium constant for the complex coming apart) was < 5 nM; the “Target residence time Tau (τ)” value is “B (τ between 1 and 3 h)”.
